# Experimental data: patent US20220010258A1, “DEVICE THAT CAN SERVE AS A HEMATO-ENCEPHALITIC BARRIER MODEL” (priority 2017, published 2022)
# Experiments:
# [1] = tested on: BBB Kit (RBT-24H) from Pharmaco-Cell, primary HEB model from rat brain cells
# [2] = tested on: device AD (endothelial cells and pericytes from APPswePS1dE9 mice)
# [3] = tested on: cryopreserved 24-well format device (murine HEB model)
substance,measurement,setting,value
FITC-dextran,factor by which impermeability is better on the device of the invention compared to the commercially available model,[1],6.7
same,permeability of the device AD higher as compared to the device WT,[2],46%
same,coefficient of permeability,[3],6-20 10^−6 cm/s
same,permeability coefficient,[3],3.278±0.925 10^−6 cm/s
